The values that follow are results of earlier work, collected in patent US4598087A, “Substituted trans-1,2-diaminocyclohexyl amide compounds” (dated 1986).

This series deals with kappa. The settings on record: P. V. Vanvoigtlander, et al.

In the case of `CN(C(=O)Cc1ccc(Cl)c(Cl)c1)[C@@H]1CCCC[C@H]1N1CCCC1` (relative stereo), the “selective kappa agonist activity” value was “selective kappa agonist activity”.
